# Test results: ChEMBL document CHEMBL5500413, “Discovery of Novel Receptor Tyrosine Kinase-like Orphan Receptor 1 (ROR1) Inhibitors for Cancer Treatment” (J Med Chem, 2024)
# By UniProt entry, the sequences of proteins in these tests, tags left out. Where a name states a change or a piece, a line headed by the entry shows the natural chain unless it says otherwise.
# UniProt P51451: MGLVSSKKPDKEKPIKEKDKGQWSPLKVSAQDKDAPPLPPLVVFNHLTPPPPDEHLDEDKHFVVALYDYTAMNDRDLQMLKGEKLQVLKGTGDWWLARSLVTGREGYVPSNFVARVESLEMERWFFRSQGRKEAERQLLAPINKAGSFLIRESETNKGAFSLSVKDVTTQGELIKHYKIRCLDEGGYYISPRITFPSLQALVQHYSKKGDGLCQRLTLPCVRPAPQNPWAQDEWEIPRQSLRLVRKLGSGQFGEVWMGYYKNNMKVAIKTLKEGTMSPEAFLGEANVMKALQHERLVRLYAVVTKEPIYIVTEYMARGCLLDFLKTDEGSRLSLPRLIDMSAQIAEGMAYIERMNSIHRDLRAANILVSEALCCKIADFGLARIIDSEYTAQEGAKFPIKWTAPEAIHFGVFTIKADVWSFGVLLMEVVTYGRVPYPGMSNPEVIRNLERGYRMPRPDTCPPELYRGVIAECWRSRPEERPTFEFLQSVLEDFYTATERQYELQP
# UniProt Q9UIK4: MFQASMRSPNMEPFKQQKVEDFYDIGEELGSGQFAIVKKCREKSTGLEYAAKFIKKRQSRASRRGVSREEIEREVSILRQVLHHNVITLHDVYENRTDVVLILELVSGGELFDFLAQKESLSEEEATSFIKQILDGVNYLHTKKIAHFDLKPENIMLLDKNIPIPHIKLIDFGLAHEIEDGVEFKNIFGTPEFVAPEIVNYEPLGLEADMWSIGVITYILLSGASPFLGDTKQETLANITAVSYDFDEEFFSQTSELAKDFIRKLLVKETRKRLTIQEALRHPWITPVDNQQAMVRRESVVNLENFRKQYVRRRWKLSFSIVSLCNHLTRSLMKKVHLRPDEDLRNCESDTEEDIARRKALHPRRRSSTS
# UniProt Q08345: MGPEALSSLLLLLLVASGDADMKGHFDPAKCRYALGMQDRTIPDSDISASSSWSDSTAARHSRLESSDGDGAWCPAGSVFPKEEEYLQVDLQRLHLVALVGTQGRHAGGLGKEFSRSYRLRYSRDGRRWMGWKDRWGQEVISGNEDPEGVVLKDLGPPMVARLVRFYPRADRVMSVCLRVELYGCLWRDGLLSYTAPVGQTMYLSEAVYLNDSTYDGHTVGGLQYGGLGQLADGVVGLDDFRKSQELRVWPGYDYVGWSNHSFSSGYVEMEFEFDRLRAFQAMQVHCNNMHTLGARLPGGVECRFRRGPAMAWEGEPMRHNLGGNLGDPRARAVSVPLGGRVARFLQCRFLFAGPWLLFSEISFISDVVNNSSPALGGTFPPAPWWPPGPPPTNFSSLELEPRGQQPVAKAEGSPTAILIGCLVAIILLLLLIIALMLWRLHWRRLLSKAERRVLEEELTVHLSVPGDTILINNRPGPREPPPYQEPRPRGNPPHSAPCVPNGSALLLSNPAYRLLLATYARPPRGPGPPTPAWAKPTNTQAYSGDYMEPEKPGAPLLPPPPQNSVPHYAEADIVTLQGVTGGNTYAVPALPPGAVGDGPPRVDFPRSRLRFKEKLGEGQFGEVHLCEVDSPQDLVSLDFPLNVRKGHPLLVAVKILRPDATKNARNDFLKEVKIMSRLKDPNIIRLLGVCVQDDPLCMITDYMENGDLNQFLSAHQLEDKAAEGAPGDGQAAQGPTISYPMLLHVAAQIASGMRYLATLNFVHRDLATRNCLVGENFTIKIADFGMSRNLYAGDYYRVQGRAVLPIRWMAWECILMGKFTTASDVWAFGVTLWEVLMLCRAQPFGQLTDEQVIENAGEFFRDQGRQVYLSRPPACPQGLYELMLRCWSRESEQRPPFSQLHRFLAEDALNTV
# UniProt P29376: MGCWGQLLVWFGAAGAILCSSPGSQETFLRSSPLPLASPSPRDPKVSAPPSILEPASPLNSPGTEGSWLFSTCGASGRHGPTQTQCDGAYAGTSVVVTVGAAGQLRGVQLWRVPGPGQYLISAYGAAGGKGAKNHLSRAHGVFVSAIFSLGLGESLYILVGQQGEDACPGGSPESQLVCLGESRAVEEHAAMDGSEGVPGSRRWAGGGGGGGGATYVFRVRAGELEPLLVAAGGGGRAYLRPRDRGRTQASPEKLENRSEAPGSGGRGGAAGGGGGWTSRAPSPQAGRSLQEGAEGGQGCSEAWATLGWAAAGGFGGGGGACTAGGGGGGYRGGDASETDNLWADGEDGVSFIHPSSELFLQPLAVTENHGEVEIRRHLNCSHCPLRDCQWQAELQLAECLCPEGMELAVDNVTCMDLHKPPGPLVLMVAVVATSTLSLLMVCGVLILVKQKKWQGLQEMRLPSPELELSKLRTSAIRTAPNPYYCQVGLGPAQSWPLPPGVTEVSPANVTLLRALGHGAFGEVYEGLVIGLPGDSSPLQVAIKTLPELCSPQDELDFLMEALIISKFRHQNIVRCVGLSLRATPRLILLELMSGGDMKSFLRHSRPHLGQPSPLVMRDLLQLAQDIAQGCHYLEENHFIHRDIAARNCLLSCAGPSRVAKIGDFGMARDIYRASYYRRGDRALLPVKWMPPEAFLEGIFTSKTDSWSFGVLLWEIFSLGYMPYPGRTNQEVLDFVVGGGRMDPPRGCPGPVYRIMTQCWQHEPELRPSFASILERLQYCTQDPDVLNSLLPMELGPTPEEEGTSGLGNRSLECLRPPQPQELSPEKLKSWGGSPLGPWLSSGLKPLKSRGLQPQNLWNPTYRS
# UniProt Q16584: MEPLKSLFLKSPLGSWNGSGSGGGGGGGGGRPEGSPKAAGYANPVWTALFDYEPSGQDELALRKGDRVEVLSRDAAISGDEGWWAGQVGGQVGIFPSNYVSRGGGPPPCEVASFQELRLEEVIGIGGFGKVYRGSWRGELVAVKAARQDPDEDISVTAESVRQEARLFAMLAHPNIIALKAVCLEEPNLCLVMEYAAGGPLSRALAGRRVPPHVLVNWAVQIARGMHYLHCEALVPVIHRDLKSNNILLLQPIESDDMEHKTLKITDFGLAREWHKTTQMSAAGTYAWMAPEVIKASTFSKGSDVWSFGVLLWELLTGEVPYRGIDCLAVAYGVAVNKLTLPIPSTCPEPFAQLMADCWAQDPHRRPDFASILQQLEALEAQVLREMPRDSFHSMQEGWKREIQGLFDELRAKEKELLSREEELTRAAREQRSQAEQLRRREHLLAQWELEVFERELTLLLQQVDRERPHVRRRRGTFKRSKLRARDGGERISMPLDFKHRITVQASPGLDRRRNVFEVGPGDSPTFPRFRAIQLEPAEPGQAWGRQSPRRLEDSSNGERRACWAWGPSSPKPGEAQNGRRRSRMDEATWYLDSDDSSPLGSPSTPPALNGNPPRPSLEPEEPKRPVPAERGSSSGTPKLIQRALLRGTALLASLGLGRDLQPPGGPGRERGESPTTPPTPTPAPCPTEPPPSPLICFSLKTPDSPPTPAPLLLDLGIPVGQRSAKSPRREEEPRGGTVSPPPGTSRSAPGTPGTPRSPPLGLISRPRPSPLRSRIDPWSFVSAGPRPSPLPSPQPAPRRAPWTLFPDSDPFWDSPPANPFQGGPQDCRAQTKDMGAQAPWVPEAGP
# UniProt Q9HBH9: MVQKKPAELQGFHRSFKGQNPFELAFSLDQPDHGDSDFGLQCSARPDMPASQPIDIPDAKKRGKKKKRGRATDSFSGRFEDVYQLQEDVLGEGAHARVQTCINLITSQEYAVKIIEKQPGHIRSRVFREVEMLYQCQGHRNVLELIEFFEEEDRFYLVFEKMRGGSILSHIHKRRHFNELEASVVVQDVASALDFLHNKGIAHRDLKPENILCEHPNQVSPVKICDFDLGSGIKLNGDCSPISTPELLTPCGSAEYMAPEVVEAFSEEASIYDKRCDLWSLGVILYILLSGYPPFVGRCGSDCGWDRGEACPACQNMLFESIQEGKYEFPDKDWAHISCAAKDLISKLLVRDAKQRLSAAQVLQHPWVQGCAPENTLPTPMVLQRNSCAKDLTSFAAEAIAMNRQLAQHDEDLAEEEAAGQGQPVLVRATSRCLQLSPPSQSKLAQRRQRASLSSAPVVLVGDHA
# UniProt O75116: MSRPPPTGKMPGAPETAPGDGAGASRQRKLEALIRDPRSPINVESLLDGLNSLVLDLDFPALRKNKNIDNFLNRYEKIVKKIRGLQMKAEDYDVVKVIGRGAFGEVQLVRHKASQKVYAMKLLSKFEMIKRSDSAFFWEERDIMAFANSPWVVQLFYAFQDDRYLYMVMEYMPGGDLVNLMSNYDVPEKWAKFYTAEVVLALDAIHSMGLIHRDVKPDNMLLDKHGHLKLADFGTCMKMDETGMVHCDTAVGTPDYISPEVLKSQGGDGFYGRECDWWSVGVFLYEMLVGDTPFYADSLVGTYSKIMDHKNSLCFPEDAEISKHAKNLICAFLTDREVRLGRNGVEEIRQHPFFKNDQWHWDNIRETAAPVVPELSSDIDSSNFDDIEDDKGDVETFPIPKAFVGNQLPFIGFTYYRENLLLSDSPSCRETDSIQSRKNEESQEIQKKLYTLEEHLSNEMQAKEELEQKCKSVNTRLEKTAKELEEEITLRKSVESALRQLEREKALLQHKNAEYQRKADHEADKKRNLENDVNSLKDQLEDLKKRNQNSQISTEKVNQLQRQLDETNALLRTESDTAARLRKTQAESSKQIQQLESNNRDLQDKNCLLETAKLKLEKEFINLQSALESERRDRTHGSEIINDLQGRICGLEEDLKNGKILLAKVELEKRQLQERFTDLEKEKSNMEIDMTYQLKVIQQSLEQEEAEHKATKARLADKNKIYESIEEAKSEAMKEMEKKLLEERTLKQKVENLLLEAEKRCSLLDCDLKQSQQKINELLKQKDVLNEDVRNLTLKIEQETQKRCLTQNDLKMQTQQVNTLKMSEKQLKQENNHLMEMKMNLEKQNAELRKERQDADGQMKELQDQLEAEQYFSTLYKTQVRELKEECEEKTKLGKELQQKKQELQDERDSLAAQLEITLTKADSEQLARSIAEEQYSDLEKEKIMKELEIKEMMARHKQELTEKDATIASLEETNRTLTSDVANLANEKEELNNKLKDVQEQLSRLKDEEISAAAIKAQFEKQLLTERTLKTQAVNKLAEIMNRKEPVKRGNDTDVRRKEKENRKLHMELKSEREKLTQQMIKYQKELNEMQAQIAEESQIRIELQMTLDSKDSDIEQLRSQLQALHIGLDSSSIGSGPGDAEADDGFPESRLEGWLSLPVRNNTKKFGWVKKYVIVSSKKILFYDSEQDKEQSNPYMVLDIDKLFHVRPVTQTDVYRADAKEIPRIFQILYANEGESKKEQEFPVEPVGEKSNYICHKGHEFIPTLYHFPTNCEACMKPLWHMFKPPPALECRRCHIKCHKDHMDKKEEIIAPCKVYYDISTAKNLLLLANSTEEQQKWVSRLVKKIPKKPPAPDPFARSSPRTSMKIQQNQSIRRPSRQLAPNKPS
# UniProt Q86Y07: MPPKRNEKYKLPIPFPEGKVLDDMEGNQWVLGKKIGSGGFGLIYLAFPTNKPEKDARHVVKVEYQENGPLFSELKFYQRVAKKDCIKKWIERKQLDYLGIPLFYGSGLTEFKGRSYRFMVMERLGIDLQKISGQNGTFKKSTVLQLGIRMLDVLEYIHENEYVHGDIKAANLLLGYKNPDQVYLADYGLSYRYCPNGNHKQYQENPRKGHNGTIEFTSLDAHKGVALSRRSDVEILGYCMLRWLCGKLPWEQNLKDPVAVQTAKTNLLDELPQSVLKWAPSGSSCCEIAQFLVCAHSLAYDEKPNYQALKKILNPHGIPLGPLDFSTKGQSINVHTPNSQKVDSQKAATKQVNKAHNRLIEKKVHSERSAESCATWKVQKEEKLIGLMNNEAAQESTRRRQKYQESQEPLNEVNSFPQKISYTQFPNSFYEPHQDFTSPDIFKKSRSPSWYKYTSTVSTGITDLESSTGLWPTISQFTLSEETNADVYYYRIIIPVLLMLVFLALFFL
# UniProt P31749: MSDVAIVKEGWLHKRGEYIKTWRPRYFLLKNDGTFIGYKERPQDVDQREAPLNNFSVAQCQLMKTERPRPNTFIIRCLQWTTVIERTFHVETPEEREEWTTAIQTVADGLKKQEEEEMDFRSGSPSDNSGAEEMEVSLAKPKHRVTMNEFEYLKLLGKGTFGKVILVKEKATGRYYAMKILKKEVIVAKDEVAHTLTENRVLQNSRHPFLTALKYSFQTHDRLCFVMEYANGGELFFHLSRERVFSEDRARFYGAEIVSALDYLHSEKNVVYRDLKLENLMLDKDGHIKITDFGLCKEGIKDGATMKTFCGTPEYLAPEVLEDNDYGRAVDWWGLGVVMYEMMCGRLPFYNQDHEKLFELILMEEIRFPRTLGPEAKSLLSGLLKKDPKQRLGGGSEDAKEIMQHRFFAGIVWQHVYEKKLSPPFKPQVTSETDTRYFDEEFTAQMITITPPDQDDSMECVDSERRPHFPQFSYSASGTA
# Activity calls are given as the source filed them. The rule behind the calls is not given here.
# Tests used:
# [1] = target: T1, Aurora kinase A (Homo sapiens) (UniProt O14965); experiment: Inhibition of human AurA at 1 uM by Eurofins Discovery screening relative to control
# T1 sequence (whole entry): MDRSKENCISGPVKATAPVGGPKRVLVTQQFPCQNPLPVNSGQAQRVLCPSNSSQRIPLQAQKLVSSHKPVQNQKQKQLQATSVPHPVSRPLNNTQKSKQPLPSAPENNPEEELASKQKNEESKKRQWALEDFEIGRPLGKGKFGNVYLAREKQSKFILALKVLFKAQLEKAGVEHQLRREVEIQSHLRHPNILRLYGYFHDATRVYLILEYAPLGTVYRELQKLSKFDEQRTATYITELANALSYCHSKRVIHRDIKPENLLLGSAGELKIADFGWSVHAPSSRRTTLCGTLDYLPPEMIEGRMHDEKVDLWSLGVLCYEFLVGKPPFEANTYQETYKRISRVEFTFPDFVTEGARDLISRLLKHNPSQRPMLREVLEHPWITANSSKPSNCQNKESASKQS
# [2] = target: Tyrosine-protein kinase Blk (Homo sapiens) (UniProt P51451); experiment: Inhibition of human BLK at 1 uM by Eurofins Discovery screening relative to control
# [3] = target: Cyclin-dependent kinase 3 (Homo sapiens) (UniProt Q00526); experiment: Inhibition of human CDK3 at 1 uM by Eurofins Discovery screening relative to control
# [4] = target: Cyclin-dependent kinase 6 (Homo sapiens) (UniProt Q00534); experiment: Inhibition of human CDK6 at 1 uM by Eurofins Discovery screening relative to control
# [5] = target: Death-associated protein kinase 2 (Homo sapiens) (UniProt Q9UIK4); experiment: Inhibition of human DAPK2 at 1 uM by Eurofins Discovery screening relative to control
# [6] = target: RAF proto-oncogene serine/threonine-protein kinase (Homo sapiens) (UniProt P04049); experiment: Inhibition of human RAF1 at 1 uM by Eurofins Discovery screening relative to control
# [7] = target: Epithelial discoidin domain-containing receptor 1 (Homo sapiens) (UniProt Q08345); experiment: Inhibition of human DDR1 at 1 uM by Eurofins Discovery screening relative to control
# [8] = target: Mitogen-activated protein kinase 8 (Homo sapiens) (UniProt P45983); experiment: Inhibition of human JNK1 at 1 uM by Eurofins Discovery screening relative to control
# [9] = target: Leukocyte tyrosine kinase receptor (Homo sapiens) (UniProt P29376); experiment: Inhibition of human LTK at 1 uM by Eurofins Discovery screening relative to control
# [10] = target: Mitogen-activated protein kinase kinase kinase 11 (Homo sapiens) (UniProt Q16584); experiment: Inhibition of human MLK3 at 1 uM by Eurofins Discovery screening relative to control
# [11] = target: MAP kinase-interacting serine/threonine-protein kinase 1 (Homo sapiens) (UniProt Q9BUB5); experiment: Inhibition of human MNK1 at 1 uM by Eurofins Discovery screening relative to control
# [12] = target: MAP kinase-interacting serine/threonine-protein kinase 2 (Homo sapiens) (UniProt Q9HBH9); experiment: Inhibition of human MNK2 at 1 uM by Eurofins Discovery screening relative to control
# [13] = target: [Pyruvate dehydrogenase (acetyl-transferring)] kinase isozyme 2, mitochondrial (Homo sapiens) (UniProt Q15119); experiment: Inhibition of human PDK2 at 1 uM by Eurofins Discovery screening relative to control
# [14] = target: Rho-associated protein kinase 2 (Homo sapiens) (UniProt O75116); experiment: Inhibition of human ROCK2 at 1 uM by Eurofins Discovery screening relative to control
# [15] = target: Tyrosine-protein kinase SYK (Homo sapiens) (UniProt P43405); experiment: Inhibition of human SYK at 1 uM by Eurofins Discovery screening relative to control
# [16] = target: TGF-beta receptor type-2 (Homo sapiens) (UniProt P37173); experiment: Inhibition of human TGFbetaR2 at 1 uM by Eurofins Discovery screening relative to control
# [17] = target: Serine/threonine-protein kinase VRK2 (Homo sapiens) (UniProt Q86Y07); experiment: Inhibition of human VRK2 at 1 uM by Eurofins Discovery screening relative to control
# [18] = target: RAC-alpha serine/threonine-protein kinase (Homo sapiens) (UniProt P31749); experiment: Inhibition of AKT activation in human NCI-H1975 cells assessed as reduction in AKT phosphorylation at 10 uM measured after 24 hrs by Western blot analysis; type: cell-based
# [19] = target: RAC-alpha serine/threonine-protein kinase (Homo sapiens) (UniProt P31749); experiment: Inhibition of AKT activation in human A549 cells assessed as reduction in AKT phosphorylation at 10 uM measured after 24 hrs by Western blot analysis; type: cell-based
# [20] = target: RAC-alpha serine/threonine-protein kinase (Homo sapiens) (UniProt P31749); experiment: Inhibition of AKT activation in human MDA-MB-231 cells assessed as reduction in AKT phosphorylation at 10 uM measured after 24 hrs by Western blot analysis; type: cell-based
smiles,measurement,setting,value
COCOc1ccc(-c2cn(C)c3cc(NC(=O)c4ccc(C)c(C#Cc5ccnc6[nH]ncc56)c4)ccc23)cc1,inhibition,[1],17%
same,inhibition,[2],15%
same,inhibition,[3],12%
same,inhibition,[4],15%
same,inhibition,[5],15%
same,inhibition,[6],24%
same,inhibition,[7],25%
same,inhibition,[8],14%
same,inhibition,[9],15%
same,inhibition,[10],19%
same,inhibition,[11],20%
same,inhibition,[12],23%
same,inhibition,[13],12%
same,inhibition,[14],26%
same,inhibition,[15],16%
same,inhibition,[16],17%
same,inhibition,[17],15%
same,inhibition,[18],Active
same,inhibition,[19],Active
same,inhibition,[20],Active
